Measured values from patent US9012398B2, “Acylated exendin-4 compounds” (priority 2006, dated 2015).

The chains behind the UniProt entries cited, without tags or fusion partners. Residues count along the entry.
UniProt P43220, 24-463: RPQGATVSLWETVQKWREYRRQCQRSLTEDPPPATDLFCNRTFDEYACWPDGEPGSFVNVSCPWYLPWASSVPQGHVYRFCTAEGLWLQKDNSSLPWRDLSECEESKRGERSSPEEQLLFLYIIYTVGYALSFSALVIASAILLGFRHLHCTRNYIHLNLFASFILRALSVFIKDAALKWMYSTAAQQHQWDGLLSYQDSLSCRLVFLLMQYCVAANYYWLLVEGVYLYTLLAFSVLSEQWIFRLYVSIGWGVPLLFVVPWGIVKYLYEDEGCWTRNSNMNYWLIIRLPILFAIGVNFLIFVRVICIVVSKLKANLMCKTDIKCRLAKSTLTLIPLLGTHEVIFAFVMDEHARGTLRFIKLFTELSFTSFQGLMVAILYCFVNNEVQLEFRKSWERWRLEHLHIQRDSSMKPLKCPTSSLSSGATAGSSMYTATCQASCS

Target: T1, human GLP-1 receptor (Homo sapiens, UniProt P43220)
T1 construct: expressed in transfected cells; host or cells: BHK cells, clone BHK-467-12A; plasma membrane preparation
Assay: Functional receptor assay: cAMP formation in plasma membranes of BHK cells expressing the cloned human GLP-1 receptor (GLP1cAMPma)
Format: biochemical
Experimental: The term “insulinotropic agent” as used herein means a compound which is an agonist of the human GLP-1 receptor, i.e. a compound which stimulates the formation of cAMP in a suitable medium containing the human GLP-1 receptor (one such medium disclosed below). The potency of an insulinotropic agent is determined by calculating the EC50 value from the dose-response curve as described below.
The cells were washed twice in phosphate buffered saline and harvested with Versene. Plasma membranes were prepared from the cells by homogenisation with an Ultraturrax in buffer 1 (20 mM HEPES-Na, 10 mM EDTA, pH 7.4). The homogenate was centrifuged at 48,000×g for 15 min at 4° C. The pellet was suspended by homogenization in buffer 2 (20 mM HEPES-Na, 0.1 mM EDTA, pH 7.4), then centrifuged at 48,000×g for 15 min at 4° C. The washing procedure was repeated one more time. The final pellet was suspended in buffer 2 and used immediately for assays or stored at −80° C.
The functional receptor assay was carried out by measuring cyclic AMP (cAMP) as a response to stimulation by the insulinotropic agent. cAMP formed was quantified by the AlphaScreen™ cAMP Kit (Perkin Elmer Life Sciences). […]

Q: For `CCCCCCCCCCCCCCCCCCCC(=O)NCCOCCOCC(=O)NCCOCCOCC(=O)NCCOCCOCC(=O)NCCCC[C@H](NC(=O)[C@@H]1CCCN1C(=O)CNC(=O)CNC(=O)[C@H](CCCNC(=N)N)NC(=O)[C@@H](NC(=O)[C@H](CC(C)C)NC(=O)[C@H](Cc1c[nH]c2ccccc12)NC(=O)[C@H](CCC(=O)O)NC(=O)[C@@H](NC(=O)[C@H](Cc1ccccc1)NC(=O)[C@H](CC(C)C)NC(=O)[C@H](CCCNC(=N)N)NC(=O)[C@@H](NC(=O)[C@H](C)NC(=O)[C@H](CCC(=O)O)NC(=O)[C@H](CCC(=O)O)NC(=O)[C@H](CCC(=O)O)NC(=O)[C@H](CC(C)C)NC(=O)[C@H](CCC(N)=O)NC(=O)[C@H](CCCNC(=N)N)NC(=O)[C@H](CO)NC(=O)[C@H](CC(C)C)NC(=O)[C@H](CC(=O)O)NC(=O)[C@H](CO)NC(=O)[C@@H](NC(=O)[C@H](Cc1ccccc1)NC(=O)[C@@H](NC(=O)CNC(=O)[C@H](CCC(=O)O)NC(=O)CNC(=O)[C@@H](N)Cc1c[nH]cn1)[C@@H](C)O)[C@@H](C)O)C(C)C)[C@@H](C)CC)C(C)C)C(=O)N[C@@H](CO)C(=O)NCC(=O)N[C@@H](C)C(=O)N1CCC[C@H]1C(=O)N1CCC[C@H]1C(=O)N1CCC[C@H]1C(=O)N[C@@H](CO)C(N)=O` [Example 13, N-ε^32-[2-(2-[2-(2-[2-(2-[2-(2-[2-(Eicosanoylamino)ethoxy]ethoxy)acetylamino]ethoxy)ethoxy]acetylamino)ethoxy]ethoxy)acetyl][Arg^12,28,Leu^14,Val^27,Lys^32] Exendin-4-(1-39)amide], which EC50 is on record?
A: 0.27 nM
